This is an account of results in ChEMBL document CHEMBL3994596, “Structural Basis for Potency and Promiscuity in Poly(ADP-ribose) Polymerase (PARP) and Tankyrase Inhibitors” (J Med Chem, 2017).

Amino acid sequences for entries named in this document (tags omitted). A change or cut given only in a name is not applied to a line headed by its entry.
UniProt Q9UGN5: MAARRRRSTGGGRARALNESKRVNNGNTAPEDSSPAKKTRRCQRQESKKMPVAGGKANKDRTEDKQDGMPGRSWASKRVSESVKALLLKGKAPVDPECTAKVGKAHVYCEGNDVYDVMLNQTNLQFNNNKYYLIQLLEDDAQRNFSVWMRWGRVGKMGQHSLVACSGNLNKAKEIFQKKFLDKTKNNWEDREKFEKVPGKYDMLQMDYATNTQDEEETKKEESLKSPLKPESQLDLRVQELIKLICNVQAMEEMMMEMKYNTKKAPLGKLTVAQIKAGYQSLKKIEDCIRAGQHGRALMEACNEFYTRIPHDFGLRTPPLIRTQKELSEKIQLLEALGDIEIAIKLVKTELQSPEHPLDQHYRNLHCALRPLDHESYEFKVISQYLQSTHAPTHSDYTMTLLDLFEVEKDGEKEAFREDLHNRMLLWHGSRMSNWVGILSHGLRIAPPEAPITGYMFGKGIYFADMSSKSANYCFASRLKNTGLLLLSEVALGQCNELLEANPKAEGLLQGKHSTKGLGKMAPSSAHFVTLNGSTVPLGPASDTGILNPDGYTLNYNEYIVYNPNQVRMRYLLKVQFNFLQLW
UniProt Q460N5, whole entry: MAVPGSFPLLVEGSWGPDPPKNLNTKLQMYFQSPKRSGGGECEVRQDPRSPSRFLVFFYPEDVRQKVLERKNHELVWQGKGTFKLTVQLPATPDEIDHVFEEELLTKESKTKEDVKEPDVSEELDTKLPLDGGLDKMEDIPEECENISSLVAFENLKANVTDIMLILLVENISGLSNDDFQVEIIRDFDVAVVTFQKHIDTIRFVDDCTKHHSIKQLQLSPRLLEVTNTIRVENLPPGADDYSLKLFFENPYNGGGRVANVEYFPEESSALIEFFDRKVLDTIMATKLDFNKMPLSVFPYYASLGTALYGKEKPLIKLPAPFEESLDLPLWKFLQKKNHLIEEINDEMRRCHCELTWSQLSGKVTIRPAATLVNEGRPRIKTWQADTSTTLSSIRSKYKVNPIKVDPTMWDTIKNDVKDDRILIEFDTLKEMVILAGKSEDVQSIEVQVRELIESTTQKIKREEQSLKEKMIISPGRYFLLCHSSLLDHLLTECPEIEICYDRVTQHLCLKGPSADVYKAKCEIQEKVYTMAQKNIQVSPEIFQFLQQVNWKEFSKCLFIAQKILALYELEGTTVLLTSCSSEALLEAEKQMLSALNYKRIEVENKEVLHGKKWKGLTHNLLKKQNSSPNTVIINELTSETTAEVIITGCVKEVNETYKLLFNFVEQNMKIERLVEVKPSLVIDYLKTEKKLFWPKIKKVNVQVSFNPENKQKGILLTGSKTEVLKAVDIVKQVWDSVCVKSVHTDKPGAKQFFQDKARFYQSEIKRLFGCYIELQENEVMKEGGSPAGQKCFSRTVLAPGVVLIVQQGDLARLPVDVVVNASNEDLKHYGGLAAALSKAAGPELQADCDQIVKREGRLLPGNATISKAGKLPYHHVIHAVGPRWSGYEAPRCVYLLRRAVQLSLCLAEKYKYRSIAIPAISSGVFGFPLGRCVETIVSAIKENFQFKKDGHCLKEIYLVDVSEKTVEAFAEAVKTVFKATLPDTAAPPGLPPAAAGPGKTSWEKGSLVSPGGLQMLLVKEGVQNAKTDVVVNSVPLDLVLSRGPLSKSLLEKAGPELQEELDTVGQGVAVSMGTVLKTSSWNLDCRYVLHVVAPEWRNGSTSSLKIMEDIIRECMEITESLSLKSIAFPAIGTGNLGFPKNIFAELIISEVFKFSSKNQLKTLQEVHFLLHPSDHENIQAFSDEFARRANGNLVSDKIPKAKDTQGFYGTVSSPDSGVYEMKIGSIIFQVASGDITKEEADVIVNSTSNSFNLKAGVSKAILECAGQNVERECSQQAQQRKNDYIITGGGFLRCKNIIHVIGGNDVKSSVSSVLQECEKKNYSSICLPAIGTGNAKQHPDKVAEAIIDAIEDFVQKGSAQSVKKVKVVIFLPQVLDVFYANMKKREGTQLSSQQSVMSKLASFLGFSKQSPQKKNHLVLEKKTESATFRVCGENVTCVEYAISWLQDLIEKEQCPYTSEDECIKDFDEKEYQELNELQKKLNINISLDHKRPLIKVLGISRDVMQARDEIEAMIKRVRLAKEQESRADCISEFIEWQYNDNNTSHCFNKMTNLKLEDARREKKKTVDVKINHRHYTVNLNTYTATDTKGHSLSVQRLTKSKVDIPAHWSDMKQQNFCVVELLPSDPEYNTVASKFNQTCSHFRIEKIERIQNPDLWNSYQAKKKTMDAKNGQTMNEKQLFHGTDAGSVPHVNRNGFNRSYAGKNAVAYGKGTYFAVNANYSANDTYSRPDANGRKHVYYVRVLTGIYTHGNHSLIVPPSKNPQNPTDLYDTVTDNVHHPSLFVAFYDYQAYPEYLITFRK

The target in assay [1] is Poly [ADP-ribose] polymerase 2 (Homo sapiens, UniProt Q9UGN5).
Assay [2] concerns the target T1, Poly [ADP-ribose] polymerase tankyrase-2 (Homo sapiens, UniProt Q9H2K2).
T1 sequence (Q9H2K2 whole entry): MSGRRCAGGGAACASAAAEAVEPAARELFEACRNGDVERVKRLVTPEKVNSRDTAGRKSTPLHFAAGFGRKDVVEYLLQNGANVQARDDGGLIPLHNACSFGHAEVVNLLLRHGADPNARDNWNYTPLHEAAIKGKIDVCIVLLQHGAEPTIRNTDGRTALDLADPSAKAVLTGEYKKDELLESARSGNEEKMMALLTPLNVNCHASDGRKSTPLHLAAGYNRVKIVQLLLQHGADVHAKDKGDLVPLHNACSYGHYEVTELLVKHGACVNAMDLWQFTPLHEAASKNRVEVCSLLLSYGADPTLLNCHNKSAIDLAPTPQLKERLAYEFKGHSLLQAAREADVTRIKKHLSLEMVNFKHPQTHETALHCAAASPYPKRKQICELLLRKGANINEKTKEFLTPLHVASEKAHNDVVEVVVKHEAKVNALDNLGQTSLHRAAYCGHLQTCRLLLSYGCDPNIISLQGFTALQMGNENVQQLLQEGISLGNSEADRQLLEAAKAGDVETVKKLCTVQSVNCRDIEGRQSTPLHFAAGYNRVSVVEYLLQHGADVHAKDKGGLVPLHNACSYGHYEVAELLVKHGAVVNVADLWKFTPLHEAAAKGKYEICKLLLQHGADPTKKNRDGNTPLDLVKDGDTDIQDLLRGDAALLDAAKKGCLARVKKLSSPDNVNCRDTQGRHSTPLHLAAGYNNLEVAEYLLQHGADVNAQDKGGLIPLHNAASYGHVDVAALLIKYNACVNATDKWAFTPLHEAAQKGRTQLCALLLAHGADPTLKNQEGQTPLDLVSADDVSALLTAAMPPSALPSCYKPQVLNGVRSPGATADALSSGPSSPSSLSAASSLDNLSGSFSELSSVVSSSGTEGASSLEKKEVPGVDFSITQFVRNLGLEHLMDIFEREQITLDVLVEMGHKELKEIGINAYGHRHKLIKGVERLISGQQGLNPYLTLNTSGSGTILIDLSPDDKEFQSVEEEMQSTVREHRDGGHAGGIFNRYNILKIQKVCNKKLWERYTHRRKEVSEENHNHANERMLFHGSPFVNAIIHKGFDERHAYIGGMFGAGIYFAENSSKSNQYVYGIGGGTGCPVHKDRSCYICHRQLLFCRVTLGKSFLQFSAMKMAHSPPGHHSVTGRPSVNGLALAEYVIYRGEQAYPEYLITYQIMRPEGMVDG

The target in assay [3] is Protein mono-ADP-ribosyltransferase PARP14 (Homo sapiens, UniProt Q460N5).
In assay [4] the target is T2, Protein mono-ADP-ribosyltransferase PARP15 (Homo sapiens, UniProt Q460N3).
T2 sequence (Q460N3 whole entry): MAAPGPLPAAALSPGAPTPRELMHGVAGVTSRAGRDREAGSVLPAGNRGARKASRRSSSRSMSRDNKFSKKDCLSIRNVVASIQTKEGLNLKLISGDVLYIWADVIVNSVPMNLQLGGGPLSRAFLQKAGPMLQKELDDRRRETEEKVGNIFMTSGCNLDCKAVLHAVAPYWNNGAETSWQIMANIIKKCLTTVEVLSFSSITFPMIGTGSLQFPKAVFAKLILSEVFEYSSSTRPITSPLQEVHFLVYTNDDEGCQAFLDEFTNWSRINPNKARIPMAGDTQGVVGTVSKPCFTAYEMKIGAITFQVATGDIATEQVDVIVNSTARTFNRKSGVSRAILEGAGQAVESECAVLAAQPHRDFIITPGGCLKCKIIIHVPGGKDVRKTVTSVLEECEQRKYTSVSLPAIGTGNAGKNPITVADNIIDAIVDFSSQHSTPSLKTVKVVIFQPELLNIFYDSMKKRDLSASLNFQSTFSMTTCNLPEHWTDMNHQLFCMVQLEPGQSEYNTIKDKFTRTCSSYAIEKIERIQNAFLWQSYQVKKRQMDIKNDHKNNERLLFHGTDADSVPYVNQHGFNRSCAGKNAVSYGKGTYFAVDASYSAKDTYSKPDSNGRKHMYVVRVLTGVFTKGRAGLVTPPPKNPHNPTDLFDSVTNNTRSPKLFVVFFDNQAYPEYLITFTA

The target in assay [5] is T3, Protein mono-ADP-ribosyltransferase PARP10 (Homo sapiens, UniProt Q53GL7).
T3 sequence (Q53GL7 whole entry): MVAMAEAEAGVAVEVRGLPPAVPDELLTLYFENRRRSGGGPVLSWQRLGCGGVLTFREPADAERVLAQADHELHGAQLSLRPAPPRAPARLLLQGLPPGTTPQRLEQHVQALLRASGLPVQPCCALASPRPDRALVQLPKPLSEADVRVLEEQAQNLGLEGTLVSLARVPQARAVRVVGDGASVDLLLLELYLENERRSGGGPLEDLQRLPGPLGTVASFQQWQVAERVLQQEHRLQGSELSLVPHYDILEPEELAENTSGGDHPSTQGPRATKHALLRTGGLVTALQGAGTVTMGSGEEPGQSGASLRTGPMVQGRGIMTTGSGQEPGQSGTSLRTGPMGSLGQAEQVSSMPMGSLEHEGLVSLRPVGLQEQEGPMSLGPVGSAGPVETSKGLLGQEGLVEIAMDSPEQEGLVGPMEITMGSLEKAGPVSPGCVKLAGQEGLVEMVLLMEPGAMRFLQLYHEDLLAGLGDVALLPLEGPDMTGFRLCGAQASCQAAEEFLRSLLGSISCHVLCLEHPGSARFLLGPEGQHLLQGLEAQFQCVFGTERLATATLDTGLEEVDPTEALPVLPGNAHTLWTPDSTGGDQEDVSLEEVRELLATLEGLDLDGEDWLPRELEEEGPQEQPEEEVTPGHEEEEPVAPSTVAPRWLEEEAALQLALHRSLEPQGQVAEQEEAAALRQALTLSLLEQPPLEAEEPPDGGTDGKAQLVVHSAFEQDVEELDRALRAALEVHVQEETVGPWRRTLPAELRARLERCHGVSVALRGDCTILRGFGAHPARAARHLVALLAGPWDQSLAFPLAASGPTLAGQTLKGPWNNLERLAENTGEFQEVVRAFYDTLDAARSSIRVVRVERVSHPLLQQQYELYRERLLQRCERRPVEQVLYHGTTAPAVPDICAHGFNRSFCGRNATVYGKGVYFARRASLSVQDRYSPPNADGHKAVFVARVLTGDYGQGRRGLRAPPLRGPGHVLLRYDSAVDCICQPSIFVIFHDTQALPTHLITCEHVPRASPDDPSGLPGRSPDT

Assay [6] deals with T3, Protein mono-ADP-ribosyltransferase PARP10. The source holds these as a separate data set.

Molecules are shown by their SMILES. “And” between values parts separate entries of the source, which are not always exact repeats. Identical values can stand only once.

With `Cc1cc(N2C[C@@H](C)N[C@@H](C)C2)ncc1-c1ccc(-c2nc3c(ccn3C)c(=O)[nH]2)cc1`, the half-inhibitory concentration (IC50) in assay [1] is 0.99 µM; in assay [2] it was 0.0006 µM and 0.000479 µM; in assay [3] it was 3.4 µM; in assay [4], 25.6 µM.
Consider `NC(=O)c1cccc2cn(-c3ccc([C@@H]4CCCNC4)cc3)nc12` [NIRAPARIB], for which the half-inhibitory concentration (IC50) in assay [2] is 5.13 µM; in assay [5] it was 1.9 µM; in assay [6], 3.3 µM; in assay [3] it was 17.3 µM and 1.74 µM; in assay [4], 29.2 µM.

For orientation: IC50 means the concentration at which inhibition is half-maximal. A high value points to a need for much substance.
